Laboratory results: patent US20240173419A1, “CDK2 DEGRADERS AND USES THEREOF” (Kymera Therapeutics, Inc., priority 2022, published 2024)

Target: CDK2 (Homo sapiens, UniProt P24941)
Assay: CDK2 degradation in MKN1 cells (AlphaLISA)
Conditions: for CDK2 degradation 14 h: Average Dmax %: 14 h incubation; for DC50: read-out: CDK2 degradation 14 h: Mean external-Abs DC50, 14 h incubation
Protocol: Degradation of CDK2 in MKN1 cells was measured using AlphaLISA technology (PerkinElmer ALSU-TCDK2-A10K). MKN1 cells were maintained in RPMI1640 medium containing 10% FBS+1× penn/strep. Cells were seeded in 96-well plates (Corning 3599) at a density of 2e4 cells per well in 80 μL of fresh complete growth medium. Cells were incubated overnight at 37° C., 5% CO2. Compounds were then added to the cell assay plates with a final top concentration of 10 μM in a 1:5 dilution series with a total of 11 doses (0.001 nM-10 μM). The final volume per well was 160 μL and the final DMSO concentration was 0.1%. Additionally, wells containing no cells and only complete growth medium were also maintained on the cell assay plates (‘no cell’ wells) and processed along with experimental wells. After 14 hour-incubation at 37° C., 5% CO2, the medium was removed and the cells were washed once with 100 μL of 1×PBS. Following removal of PBS, 40 μL of 1× Lysis Buffer containing 1× protease and phosphatase inhibitors (Roche 4693116001; Roche 4906837001) were added to each well. The cell assay plate was agitated on a plate shaker at 350 rpm for 10 minutes at room temperature. 10 μL of each cell lysate were transferred to a 384-well plate (PerkinElmer 6007290). 10 μL of control lysates (from PerkinElmer ALSU-TCDK2-A10K kit) were added to separate wells to generate a standard curve. Activation Buffer was prepared by diluting 25-fold in combined Reaction Buffer 1 and Reaction Buffer 2. Acceptor Beads were diluted 50-fold in combined Reaction Buffers. 5 μL of Acceptor Mix were added to each well. The plate was sealed with Topseal-Aadhesive film, covered with foil, and incubated in the dark for 1 hour at room temperature. Under subdued light, the Donor Beads were diluted 50-fold in Dilution Buffer. 5 μL of Donor Mix were added to each well under subdued light. The plate was sealed with Topseal-A adhesive film, covered with foil, and incubated in the dark for 1 hour at room temperature. Under subdued light, the plates were analyzed on an EnVision Microplate Reader (PerkinElmer Model 2009-0030). The average signal from ‘no cell’ wells was subtracted from the signal in experimental wells prior to calculating Alpha signal for test compounds and negative control (0.100 DMSO). The data were analyzed using Xlfit (v5.3. 1.3) and the dose-dependent CDK2 degradation data were fit using a four-parameter logistic model to calculate DC50.

Compound | CDK2 degradation 14 h: Average Dmax % | DC50 [nM]
Cc1cc(S(=O)(=O)NCC2(C)CN(C3CCN(c4ccc(C5CCC(=O)NC5=O)c(Cl)c4)CC3)CCO2)ccc1Nc1ncc(C(F)(F)F)c(N2CCC[C@](C)(O)C2)n1 (some centres unmarked) | C (C (>25% -50%)) | > 1000
Cc1cc(S(=O)(=O)NCC2(C)CCN(c3ccc(C4CCC(=O)NC4=O)c(Cl)c3)CC2)ccc1Nc1ncc(C(F)(F)F)c(N2CCC[C@](C)(O)C2)n1 (some centres unmarked) | D (D (<25%)) | > 1000
Cc1cc(S(=O)(=O)N[C@H]2CC[C@H](CN(C)c3ccc(C4CCC(=O)NC4=O)c(Cl)c3)CC2)ccc1Nc1ncc(C(F)(F)F)c(N2CCC[C@](C)(O)C2)n1 (some centres unmarked) | D (D (<25%)) | > 1000
Cc1cc(S(=O)(=O)N[C@H]2C[C@H](N3CCC(OCC#Cc4cccc(N5CCC(=O)NC5=O)c4C)CC3)C2)ccc1Nc1ncc(C(F)(F)F)c(N2CCC[C@](C)(O)C2)n1 | C (C (>25% -50%)) | > 1000
Cc1cc(S(=O)(=O)NCCOCCOCCNC(=O)COc2ccc(C)c(N3CCC(=O)NC3=O)c2)ccc1Nc1ncc2cc(Cl)c(=O)n(C3CCCC3)c2n1 | A (A (>75% o)) | 100 to 500
Cc1cc(S(=O)(=O)NC2CC3(CCN(c4ccc(C5CCC(=O)NC5=O)c(Cl)c4)CC3)C2)ccc1Nc1ncc(C(F)(F)F)c(N2CCC[C@](C)(O)C2)n1 (some centres unmarked) | D (D (<25%)) | > 1000
Cc1cc(S(=O)(=O)NC2CCC3(CC2)CN(Cc2ccc(C4CCC(=O)NC4=O)c(Cl)c2)C3)ccc1Nc1ncc(C(F)(F)F)c(N2CCC[C@](C)(O)C2)n1 (some centres unmarked) | B (B (>50% -75%)) | > 1000
Cc1cc(S(=O)(=O)N[C@H]2CC[C@H](CC3CCN(c4ccc(C5CCC(=O)NC5=O)cc4)CC3)CC2)ccc1Nc1ncc(C(F)(F)F)c(N2CCC[C@](C)(O)C2)n1 (some centres unmarked) | A (A (>75% o)) | 100 to 500
Cc1cc(S(=O)(=O)N[C@H]2CC[C@H](CN3CCN(c4ccc(C5CCC(=O)NC5=O)cc4F)CC3)CC2)ccc1Nc1ncc2c(n1)N([C@@H]1CCC[C@@H](O)C1)C(=O)C21CC1 (some centres unmarked) | A (A (>75% o)) | < 100
Cc1cc(S(=O)(=O)NCCOCCOCCOCC2CCN(c3ccc(N4CCC(=O)NC4=O)cc3)CC2)ccc1Nc1ncc2cc(Cl)c(=O)n(C3CCCC3)c2n1 | B (B (>50% -75%)) | 100 to 500
Cc1cc(S(=O)(=O)NC23CCC(CN4CCN(c5ccc(C6CCC(=O)NC6=O)c(F)c5)CC4)(CC2)C3)ccc1Nc1ncc(C(F)(F)F)c(N2CCC[C@](C)(O)C2)n1 (some centres unmarked) | A (A (>75% o)) | < 100
Cc1cc(S(=O)(=O)NC23C4C5C2C2C3C4C52N2CCN(c3ccc(C4CCC(=O)NC4=O)cc3F)CC2)ccc1Nc1ncc(C(F)(F)F)c(N2CCC[C@](C)(O)C2)n1 (some centres unmarked) | A (A (>75% o)) | < 100
Cc1cc(S(=O)(=O)NCCO[C@H]2CC[C@H](CN3CCC(c4ccc5c(c4)n(C)c(=O)n5C4CCC(=O)NC4=O)CC3)CC2)ccc1Nc1ncc(C(F)(F)F)c([C@H]2CC[C@@](C)(O)CC2)n1 (some centres unmarked) | A (A (>75% o)) | < 100
COc1cc(S(=O)(=O)N[C@H]2CC[C@H](CN3CCN(c4ccc(C5CCC(=O)NC5=O)c(F)c4)CC3)CC2)ccc1Nc1ncc(C(F)(F)F)c(N2CCC[C@](C)(O)C2)n1 (some centres unmarked) | A (A (>75% o)) | < 100
Cc1cc(S(=O)(=O)NC23CCC(CN4CCN(c5ccc(C6CCC(=O)NC6=O)c(Cl)c5)CC4)(CC2)OC3)ccc1Nc1ncc(C(F)(F)F)c(N2CCC[C@](C)(O)C2)n1 (some centres unmarked) | A (A (>75% o)) | < 100
Cc1cc(S(=O)(=O)NC23CCC(CN4CCN(c5ccc(C6CCC(=O)NC6=O)cc5F)CC4)(CC2)OC3)ccc1Nc1ncc(C(F)(F)F)c(N2CCC[C@](C)(O)C2)n1 (some centres unmarked) | A (A (>75% o)) | < 100

Other lines, results leading:

CDK2 degradation 14 h: Average Dmax % | DC50 [nM] | Compound
A (A (>75% o)) | < 100 | [2H][C@@](C)(CO[C@H]1CC[C@H](CN2CCN(c3ccc4c(c3F)n(C)c(=O)n4C3CCC(=O)NC3=O)CC2)CC1)NS(=O)(=O)c1ccc(Nc2ncc(C(F)(F)F)c(N3CCC[C@](C)(O)C3)n2)c(C)c1 (some centres unmarked)
A (A (>75% o)) | < 100 | Cc1cc(S(=O)(=O)NC23CCC(CN4CCN(c5ccc(C6CCC(=O)NC6=O)c(Cl)c5)C[C@@H]4C)(CC2)OC3)ccc1Nc1ncc(C(F)(F)F)c(N2CCC[C@](C)(O)C2)n1 (some centres unmarked)
B (B (>50% -75%)) | < 100 | C[C@@]1(O)CCC[C@H]1n1c(=O)c(C(F)F)cc2cnc(NC3CCN(S(=O)(=O)CCCCCCNc4cccc5c4C(=O)N(C4CCC(=O)NC4=O)C5=O)CC3)nc21 (some centres unmarked)
A (A (>75% o)) | < 100 | Cc1cc(S(=O)(=O)N[C@H]2CC[C@H](CN3CCN(c4ccc(C5CCC(=O)NC5=O)cc4)C(=O)C3)CC2)ccc1Nc1ncc2c(n1)N([C@@H]1CCC[C@@H](O)C1)C(=O)C21CC1 (some centres unmarked)
A (A (>75% o)) | < 100 | Cc1cc(S(=O)(=O)NC2(C)CC(N3CCN(CC4CCN(c5ccc6c(c5F)n(C)c(=O)n6C5CCC(=O)NC5=O)CC4)CC3)C2)ccc1Nc1ncc(C(F)(F)F)c(N2CCCC(C)(O)C2)n1 (single isomer, unassigned)
A (A (>75% o)) | < 100 | Cc1cc(S(=O)(=O)N[C@@H]2CCN(CC3CCN(c4ccc(C5CCC(=O)NC5=O)cc4F)CC3)C[C@@H]2F)ccc1Nc1ncc(C(F)(F)F)c(N2CCC[C@](C)(O)C2)n1 (some centres unmarked)
A (A (>75% o)) | < 100 | Cc1cc(S(=O)(=O)N[C@H]2CC[C@H](CN3CCN(c4ccc(C5CCC(=O)NC5=O)cc4)CC34CC4)CC2)ccc1Nc1ncc(C(F)(F)F)c(N2CCC[C@](C)(O)C2)n1 (some centres unmarked)
A (A (>75% o)) | < 100 | CCc1cc(S(=O)(=O)N[C@H]2CC[C@H](CN3CCN(c4ccc(C5CCC(=O)NC5=O)c(F)c4)CC3)CC2)ccc1Nc1ncc(C(F)(F)F)c(N2CCC[C@](C)(O)C2)n1 (some centres unmarked)
A (A (>75% o)) | < 100 | Cc1cc(S(=O)(=O)C2CC3(CCN(CC4CCN(c5ccn(C6CCC(=O)NC6=O)c(=O)c5)CC4)CC3)C2)ccc1Nc1ncc2ccc(=O)n(C3CCCC3)c2n1 (centres unmarked)
B (B (>50% -75%)) | < 100 | Cc1cc(S(=O)(=O)NC2CCN(CC3(F)CN(c4ccc(C5CCC(=O)NC5=O)c(Cl)c4)C3)CC2)ccc1Nc1ncc(C(F)(F)F)c(N2CCC[C@](C)(O)C2)n1 (some centres unmarked)
A (A (>75% o)) | < 100 | [2H]C([2H])([2H])c1cc(S(=O)(=O)N[C@@H]2CCN(CC3CCN(c4ccc(C5CCC(=O)NC5=O)cc4F)CC3)C[C@@H]2F)ccc1Nc1ncc(C(F)(F)F)c(N2CCC[C@](C)(O)C2)n1 (some centres unmarked)
A (A (>75% o)) | < 100 | Cc1cc(S(=O)(=O)N[C@H]2CC[C@H](CN3CCN(c4ccc(NC5CCC(=O)NC5=O)c(Cl)c4)CC3)CC2)ccc1Nc1ncc(C(F)(F)F)c(N2CCC[C@](C)(O)C2)n1 (some centres unmarked)
A (A (>75% o)) | < 100 | Cc1cc(S(=O)(=O)N[C@H]2CCN(CC3CCN(c4ccc(C5CCC(=O)NC5=O)c(F)c4)CC3)C[C@@H]2F)ccc1Nc1ncc(C(F)(F)F)c(N2CCC[C@](C)(O)C2)n1 (some centres unmarked)
B (B (>50% -75%)) | < 100 | Cc1cc(S(=O)(=O)CCCCN2CCN(CC3CCN(c4ccc5c(c4)n(C)c(=O)n5C4CCC(=O)NC4=O)CC3)CC2)ccc1Nc1ncc(C(F)(F)F)c(-c2cnn(C)c2)n1 (centres unmarked)
A (A (>75% o)) | < 100 | Cc1cc(S(=O)(=O)NC2CCC(F)(CN3CCN(c4ccc(C5CCC(=O)NC5=O)cc4F)CC3)CC2)ccc1Nc1ncc(C(F)(F)F)c(N2CCC[C@](C)(O)C2)n1 (single isomer, unassigned)
A (A (>75% o)) | < 100 | Cc1cc(S(=O)(=O)N[C@H]2CC[C@H](CN3CCC(c4cccc(NC5CCC(=O)NC5=O)c4)CC3)CC2)ccc1Nc1ncc(C(F)(F)F)c(N2CCC[C@](C)(O)C2)n1 (some centres unmarked)
A (A (>75% o)) | < 100 | Cc1cc(S(=O)(=O)N[C@H]2CC[C@H](CN3CCN(c4ccc(C5CCC(=O)NC5=O)c(Cl)c4F)CC3)CC2)ccc1Nc1ncc(C(F)(F)F)c(N2CCC[C@](C)(O)C2)n1 (some centres unmarked)
A (A (>75% o)) | < 100 | Cc1cc(S(=O)(=O)N[C@H]2CC[C@H](CN3CCN(c4ccc(C5CCC(=O)NC5=O)cc4F)CC3)CC2)ccc1Nc1ncc(C(F)(F)F)c(N2CCC[C@](C)(O)C2)n1 (some centres unmarked)
